Source: patent publication US10975049B2, “Nicotinyl alcohol ether derivative, preparation method therefor, and pharmaceutical composition and uses thereof” (Institute of Materia Medica, Chinese Academy of Medical …, priority 2016, dated 2021)

Tested on: mouse colon cancer MC38
Assay: Subcutaneous xenograft model of mouse colon cancer MC38
Type: in vivo, C57BL/6 or Bablc mice
Description: The method in subcutaneous xenograft tumor was as follows. The cultured specific tumor cells were digested and collected by centrifugation, and washed with sterile physiological saline for two times and then counted. The cell concentration was adjusted to 5×10^6/ml by physiological saline, and 0.2 ml of cell suspension was inoculated to the right armpit of C57BL/6 or Bablc mice. After inoculation, the animals were randomly divided into two groups in next day. Each group had 6-7 mice. After weighing, the animals were dosed once each day to monitor tumor size. When the tumor size reached to a certain size, the mice was weighed and blood was collected from mice orbit and then the mice were killed by removing the neck. The tumor tissue, thymus tissue and spleen tissue were collected and weighed respectively. Finally, the tumor growth inhibition rate was calculated, and the tumor growth inhibition rate was used to evaluate the level of anti-tumor effect.

O=C(O)[C@H](CO)NCc1cc(Cl)c(OCc2cccc(-c3ccccc3)c2Br)cc1OCc1cccnc1 [Example 4, (S)—N-(4-(2-bromo-3-phenylbenzyloxy)-5-chloro-2-(pyridin-3-yl-methyleneoxy)benzyl) serine]
Body weight (g) Mean ± SD Begin (5 mg/kg): 18.2 ± 0.3 g
Body weight (g) Mean ± SD Begin (10 mg/kg): 18.2 ± 0.3 g
Body weight (g) Mean ± SD Begin (20 mg/kg): 18.2 ± 0.4 g
